Results published in patent US5219851A, “Tetrahydroisoquinoline-type renin inhibiting peptides” (Warner-Lambert Company, priority 1991, dated 1993).

By UniProt entry, the sequences of proteins in these tests, tags left out. Residues count along the entry.
UniProt P00797, 67-406 limits assumed: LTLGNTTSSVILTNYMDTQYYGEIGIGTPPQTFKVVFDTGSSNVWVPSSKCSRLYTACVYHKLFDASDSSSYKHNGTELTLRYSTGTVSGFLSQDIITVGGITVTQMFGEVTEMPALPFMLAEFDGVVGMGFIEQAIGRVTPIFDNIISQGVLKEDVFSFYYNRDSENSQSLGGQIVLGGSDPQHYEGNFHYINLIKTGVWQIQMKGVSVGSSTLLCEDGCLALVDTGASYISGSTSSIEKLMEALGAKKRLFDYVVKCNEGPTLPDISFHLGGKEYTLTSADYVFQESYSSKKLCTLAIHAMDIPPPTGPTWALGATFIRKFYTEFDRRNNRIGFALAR

Biological target: renin (Homo sapiens, UniProt P00797)
Assay: in vitro renin inhibitory activity, radioimmunoassay for angiotensin I
Conditions: read-out: IC50 Renin; incubated 2 hours at 37° C. with angiotensinogen
Description: The effectiveness of the aforementioned compounds is determined by a test for in vitro renin inhibitory activity. This activity is determined by a standard radioimmunoassay for angiotensin I. In this assay the enzyme, renin, incubated for 2 hours at 37° C. in the presence of a substrate, angiotensinogen, generates the product, angiotensin I. Test compounds are added to the incubation mixture. Relative activity is reported as the IC50, which is the molar concentration of test compound causing a 50% inhibition of the renin activity.

- IC50: 1010 nM
Structure (SMILES): CC(C)CC(O)C(O)C(CC1CCCCC1)NC(=O)CNC(=O)C1Cc2ccccc2CN1S(=O)(=O)N1CCOCC1 (stereo not shown)
